The source of these data is ChEMBL document CHEMBL1144891, “Design, synthesis, and pharmacology of a highly subtype-selective GluR1/2 agonist, (RS)-2-amino-3-(4-chloro-3-hydroxy-5-isoxazolyl)propionic acid (Cl-HIBO)” (J Med Chem, 2003).

The chains behind the UniProt entries cited, without tags or fusion partners. Where a name states a change or a piece, a line headed by the entry shows the natural chain unless it says otherwise.
UniProt P19492: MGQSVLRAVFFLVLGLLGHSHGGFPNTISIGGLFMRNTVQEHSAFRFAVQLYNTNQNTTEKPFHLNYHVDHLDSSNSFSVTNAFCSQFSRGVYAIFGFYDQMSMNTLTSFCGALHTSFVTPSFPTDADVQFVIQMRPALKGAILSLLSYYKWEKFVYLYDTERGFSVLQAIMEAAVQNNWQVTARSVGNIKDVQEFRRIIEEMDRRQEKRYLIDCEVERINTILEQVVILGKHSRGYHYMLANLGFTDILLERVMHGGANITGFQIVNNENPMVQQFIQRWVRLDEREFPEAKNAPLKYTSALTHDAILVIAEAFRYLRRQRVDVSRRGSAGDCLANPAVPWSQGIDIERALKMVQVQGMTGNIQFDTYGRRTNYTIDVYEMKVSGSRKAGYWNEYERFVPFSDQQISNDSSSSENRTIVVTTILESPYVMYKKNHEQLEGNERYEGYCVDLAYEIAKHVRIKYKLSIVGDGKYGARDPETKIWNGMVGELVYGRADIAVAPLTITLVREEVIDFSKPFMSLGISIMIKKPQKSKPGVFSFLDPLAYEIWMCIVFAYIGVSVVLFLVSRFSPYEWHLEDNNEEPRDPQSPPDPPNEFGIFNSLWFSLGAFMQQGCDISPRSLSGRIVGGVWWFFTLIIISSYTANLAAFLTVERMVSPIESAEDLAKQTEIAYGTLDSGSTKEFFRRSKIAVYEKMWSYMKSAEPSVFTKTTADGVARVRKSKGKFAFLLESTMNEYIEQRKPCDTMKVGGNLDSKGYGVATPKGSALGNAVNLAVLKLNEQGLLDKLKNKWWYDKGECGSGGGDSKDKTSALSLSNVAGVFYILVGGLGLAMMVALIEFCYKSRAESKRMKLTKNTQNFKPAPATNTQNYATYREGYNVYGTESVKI

For this assay, the target named is Glutamate receptor 3 (Rattus norvegicus, UniProt P19492). Description: Effective concentration of compound was determined for electrophysiological properties on Ionotropic glutamate receptor AMPA 3 (GluR3) using […] Xenopus laevis oocytes. It counts as functional, cell-based, Oocyte.

Molecules are shown by their SMILES.

For orientation: EC50 means the concentration needed to bring the measured effect to its halfway point. Read a low EC50 as a more potent agent.

As to `Cc1onc(O)c1CC(N)C(=O)O` [(R,S)-AMPA], the EC50 stood at 1400 nM.
